# Earlier results as cited in patent US20100286271A1, “Nitro-alkyl Compound Compositions” (priority 2009, published 2010).
# Amino acid sequences for entries named in this document (tags omitted). Residues count along the entry.
# UniProt P80457, 2-1332 limits assumed: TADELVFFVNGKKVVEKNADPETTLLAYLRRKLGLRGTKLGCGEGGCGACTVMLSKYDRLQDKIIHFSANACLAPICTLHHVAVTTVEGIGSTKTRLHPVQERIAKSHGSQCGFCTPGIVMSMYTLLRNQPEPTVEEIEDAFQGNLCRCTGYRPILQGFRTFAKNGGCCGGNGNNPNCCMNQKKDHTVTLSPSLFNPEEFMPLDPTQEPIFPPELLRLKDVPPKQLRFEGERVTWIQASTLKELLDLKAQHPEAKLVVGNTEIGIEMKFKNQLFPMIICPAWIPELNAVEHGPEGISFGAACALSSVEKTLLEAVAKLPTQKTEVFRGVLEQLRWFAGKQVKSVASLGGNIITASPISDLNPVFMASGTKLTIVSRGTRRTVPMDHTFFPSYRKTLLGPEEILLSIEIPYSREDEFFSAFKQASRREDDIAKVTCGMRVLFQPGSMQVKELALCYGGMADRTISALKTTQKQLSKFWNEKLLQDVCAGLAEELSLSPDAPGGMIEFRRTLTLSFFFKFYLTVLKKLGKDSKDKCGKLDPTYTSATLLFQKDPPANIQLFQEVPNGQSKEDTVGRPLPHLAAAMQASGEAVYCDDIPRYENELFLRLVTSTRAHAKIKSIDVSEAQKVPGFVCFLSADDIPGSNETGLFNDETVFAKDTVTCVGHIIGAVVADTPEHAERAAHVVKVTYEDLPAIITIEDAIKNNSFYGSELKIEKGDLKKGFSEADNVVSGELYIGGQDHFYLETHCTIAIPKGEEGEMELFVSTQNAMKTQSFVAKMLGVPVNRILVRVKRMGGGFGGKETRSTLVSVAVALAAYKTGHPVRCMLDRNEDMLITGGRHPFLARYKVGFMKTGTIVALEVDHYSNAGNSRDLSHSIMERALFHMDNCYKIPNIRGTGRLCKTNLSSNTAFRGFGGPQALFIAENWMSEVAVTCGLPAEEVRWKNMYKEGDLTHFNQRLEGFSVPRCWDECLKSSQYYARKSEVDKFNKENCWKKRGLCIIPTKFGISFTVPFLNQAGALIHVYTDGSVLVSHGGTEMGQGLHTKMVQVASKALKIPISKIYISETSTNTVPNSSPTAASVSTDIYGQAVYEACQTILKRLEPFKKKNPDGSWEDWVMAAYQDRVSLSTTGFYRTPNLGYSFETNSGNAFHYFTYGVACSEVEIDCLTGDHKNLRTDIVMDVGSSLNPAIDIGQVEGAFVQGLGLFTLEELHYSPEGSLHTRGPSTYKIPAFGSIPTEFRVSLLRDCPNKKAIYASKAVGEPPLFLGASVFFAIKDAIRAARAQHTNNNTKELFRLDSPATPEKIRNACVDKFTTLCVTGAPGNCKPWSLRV
# Molecular target: xanthine oxidoreductase (XOR) (Bos taurus, UniProt P80457)
# Settings: read-out: IC50 for inhibition of xanthine oxidoreductase (XOR) activity; reported by Kelley et al., J Biol Chem, 2008
smiles,measurement,value
CCCCCCCC/C(=C\CCCCCCCC(=O)O)[N+](=O)[O-],IC50,600 nM
